{"source": "paper PMC4672351", "about": "“Drug-Drug Interaction Potentials of Tyrosine Kinase Inhibitors via Inhibition of UDP-Glucuronosyltransferases” (Scientific Reports, 2015)", "target": "human liver microsomes (HLMs)", "conditions": "read-out: Ki, HLMs; SN-38 substrate"}
{"smiles": "CS(=O)(=O)CCNCc1ccc(-c2ccc3ncnc(Nc4ccc(OCc5cccc(F)c5)c(Cl)c4)c3c2)o1", "note": "[Lapatinib, lapatinib]", "values": [{"measurement": "Ki", "value": "1600 ± 200", "unit": "nM"}]}
